Measurements reported in US10160948B2, “Pluripotent embryonic-like stem cells, compositions, methods and uses thereof” (ABT HOLDING COMPANY, priority 1999, dated 2018).

Assays:
[1] = test system: progenitor stem cells; assay: Proliferation and phenotypic responses to bioactive factors: progenitor cells; assay type: cell-based
Description: (§1) Having access to mixed populations of progenitor stem cells, progenitor stem cell clones, and pluripotent stem cell clones permits one to address the influence of various bioactive factors (e.g. recombinant growth factors, purified compounds, and novel inductive factors) on the growth characteristics and phenotypic expression of these stem cells. In initial studies, we have tested fourteen bioactive factors with these cells, both singly and in combination (TABLE 12). Three general categories of activities have been shown (proliferation, lineage-commitment, and lineage-progression). The bioactive factors could produce either stimulatory or inhibitory effects. The effects could be either general across all the lineages or limited to one or more specific tissue lineages.
Cryopreserved cells are thawed and plated in MSC-1 at 5, 10, or 20×10^3 cells per well of gelatinized 24-well plates following the standard protocol. Twenty-four hours after initial plating the medium is changed to testing medium (TM) 1 to 6 (TM-1, TM-2, TM-3, TM-4, TM-5, or TM-6). […] The ratios of Ultraculture to medium to antibiotics present in each testing medium was determined empirically for each lot of Ultraculture, based on its ability to maintain steady-state culture conditions in both populations of avian progenitor and pluripotent cells. […]

[2] = test system: pluripotent stem cells; assay: Proliferation and phenotypic responses to bioactive factors: pluripotent cells; assay type: cell-based
Description: as §1
Cryopreserved cells are thawed and plated in MSC-1 at 5, 10, or 20×10^3 cells per well of gelatinized 24-well plates following the standard protocol. Twenty-four hours after initial plating the medium is changed to testing medium (TM) 1 to 6 (TM-1, TM-2, TM-3, TM-4, TM-5, or TM-6). TM-1 to TM-4 consist of Ultraculture (cat. no. 12-725B, lot. nos. OMO455 [TM-1], 1M1724 [TM-2], 2M0420 [TM-3], or 2M0274 [TM-4], Bio-Whittaker, Walkersville, Md.), medium (EMEM or Opti-MEM 0.01 mM β-mercaptoethanol), and 1% (v/v) antibiotic-antimycotic, pH 7.4. TM-5 consists of 98% (v/v) medium, 1% (v/v) HS, and 1% (v/v) antibiotic-antimycotic, pH 7.4. TM-6 consists of 98.5% (v/v) medium, 0.5% (v/v) HS, and 1% (v/v) antibiotic-antimycotic, pH 7.4. Testing medium containing ratios of Ultraculture: medium (EMEM or Opti-MEM+0.01 mM β-mercaptoethanol): antibiotics (+antimycotics) maintained both progenitor and pluripotent cells in “steady-state” conditions for a minimum of 30 days in culture, and as long as 120 days in culture. […] The ratios of Ultraculture to medium to antibiotics present in each testing medium was determined empirically for each lot of Ultraculture, based on its ability to maintain steady-state culture conditions in both populations of avian progenitor and pluripotent cells. […]

[3] = presence and approximate distribution of differentiated phenotypes within the culture wells

B1: BMP-2: Bone morphogenetic protein-2 (protein, UniProt P12643 283-396, looked up)
Bone morphogenetic protein 2: QAKHKQRKRLKSSCKRHPLYVDFSDVGWNDWIVAPPGYHAFYCHGECPFPLADHLNSTNHAIVQTLVNSVNSKIPKACCVPTELSAISMLYLDENEKVVLKNYQDMVVEGCGCR
In the case of B1, the “Proliferation, Progenitor: number of times the agent increased the DNA content per well versus its respective control” value [1] is reported as 2 times, the “Phenotypic Expression, Progenitor” value [1, 3] is reported as “C+++/All+” and the “Proliferation, Pluripotent: number of times the agent increased the DNA content per well versus its respective control” value [2] is reported as 2 times. The “activity on pluripotent and progenitor stem cells, in words” value ([2]; pluripotent and progenitor cells) was “specific chondrogenic lineage-commitment agent in pluripotent cells” and the “Phenotypic Expression, Pluripotent” value [2, 3] was “C++++”.
